# Laboratory results reported in patent US6989148B2, “Treatment of diabetes” (priority 1994, dated 2006).
# Experiments:
# [1] = 50 μg GLIP subcutaneously; FIG. 6 Panel E
# normal volunteers = assay: Sustacal meal preceded by subcutaneous GLIP injection in normal volunteers (Example 4); format: in vivo, human
# Experimental: 7 normal volunteers were studied after ingestion of a Sustacal meal either alone or immediately preceded by a subcutaneous injection of 1.00 μg GLIP.
# Results are shown in FIG. 4. *indicates statistically significant differences between treatments (p<0.05).
substance,measurement,setting,value
Glucagon-like peptide 1(7-36)amide [GLIP],time for GLIP to be cleared from the blood,[1],about two
same,"delay in increase in blood levels (glucose, HPP, C-peptide, insulin) relative to first dose",normal volunteers; 50 μg dose of GLIP,proportionally shorter
same,"delay in increase in blood levels (glucose, HPP, C-peptide, insulin) relative to first dose",normal volunteers; 200 μg dose of GLIP,longer delays
